{"source": "patent US10975434B2", "about": "“Growth differentiation factor 15 as biomarker for metformin” (Sanofi-Aventis Deutschland GmbH, priority 2015, dated 2021)", "test_system": "GDF15", "assay": "GDF15 release into media of primary hepatocytes (ELISA)", "conditions": "primary C57Bl6 hepatocytes, 24 hours; metformin 0.5 mM, A769662 10 μM, insulin 10 nM, hydrogen peroxide 0.5 mM; versus vehicle/no exposure", "protocol": "To further understand the link between metformin and GDF15 levels, in vitro experiments were conducted using mouse hepatocytes. Primary hepatocytes from 4 different C57Bl6 wild-type male mice were isolated by collagenase digestion as previously described^14. Briefly, cells were plated on 12-well collagen-coated plates overnight in William's Media E containing 10% fetal bovine serum (FBS) and 1% antibiotic-antimycotic. […] Media was then snap frozen and stored at −80° C. for later analyses, and cells were harvested in cell lysis buffer for assessment of total protein or RNA.\nGDF15 release into the media was measured using a commercially available ELISA kit (R&D Systems, Minneapolis, Minn.) and expressed per mg of hepatocyte protein. Total RNA was isolated using the Trizol plus RNA Purification kit (Ambion), concentrated with Speedvac (Thermo), and then quantified using Quant-IT RiboGreen (LifeTech). Total RNA was then reverse transcribed and amplified using the Illumina TotalPrep RNA Amplification Kit (LifeTech) according to the manufacturer's protocol. Samples were hybridized to the Illumina Mouse Ref-8 v2.0 complementary DNA BeadChip and scanned on the iScan System (Illumina). The raw sample probe profile and control probe profile were exported from GenomeStudio version 1.9.0 (Illumina). […]", "note": "“Also recorded” adds a separate entry of the source.", "data": [{"substance": "insulin", "values": [{"measurement": "GDF15 protein in the hepatocyte media (GDF15 secretion)", "result": "none of these substances affected; also recorded: unaffected"}]}]}
